In ChEMBL document CHEMBL1157807, “NO-releasing esters show carbonic anhydrase inhibitory action against human isoforms I and II” (Bioorg Med Chem, 2010) one finds IC50 data, which are given here for one compound.

The assay has as its target Carbonic anhydrase 2 (Homo sapiens, UniProt P00918). In words: Inhibition of human carbonic anhydrase 2 esterase activity by spectrophotometry. The following applies: read-out: I50. An outline of the steps: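 Enzyme purified from human erythrocytes. Esterase activity is followed as 4-nitrophenylacetate conversion to 4-nitrophenylate by absorbance at 348 nm over 3 min at 25 °C, in Tris–SO4 buffer pH 7.4. A reference cuvette lacks enzyme. Each inhibitor concentration is run in triplicate, with uninhibited control activity set to 100%. IC50 is read from %activity vs [inhibitor] plots.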

On to `O=[N+]([O-])O[C@H]1C[C@H](O[N+](=O)[O-])[C@@H](O)C[C@@H]1O`, for which the IC50 came out at 86.3 µM.
